Antibody variant affinities, Ab-14 light chain, assay B

The measurements come from Li et al. 2023 (doi:10.1038/s41467-023-39022-2) through the FLAb antibody collection.

Antigen: PDVDLGDISGINAS, a 14-residue peptide of the SARS-CoV-2 spike HR2 region.

Ab-14 is the parent antibody, in scFv form: VH, then a (GGGGS)3 linker, then VL. The heavy chain is unchanged in all variants.
VH: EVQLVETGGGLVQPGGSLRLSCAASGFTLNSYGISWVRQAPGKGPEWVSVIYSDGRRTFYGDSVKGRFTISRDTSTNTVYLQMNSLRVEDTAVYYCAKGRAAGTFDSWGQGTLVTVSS
VL: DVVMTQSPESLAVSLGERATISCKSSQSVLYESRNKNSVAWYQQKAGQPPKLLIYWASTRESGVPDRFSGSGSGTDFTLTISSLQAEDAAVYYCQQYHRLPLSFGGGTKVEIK

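Phage display of a naive human antibody library on the peptide gave the parent. This is the validation round: designs drawn from the data on random variants, tested in the same kind of assay. Their group label is 14L_GP_Gibbs (GP: Gaussian process model; Gibbs: Gibbs sampling; a sequence that several methods proposed may carry one label only). Affinity was read by AlphaSeq, a pooled yeast mating assay with surface-displayed partners. Pairs that bind mate more often; barcode pairs of the diploids are counted by sequencing. A regression on co-assayed BCL2-family reference pairs converts the normalised counts of each replicate to an apparent Kd. There are six technical replicates.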

The parent's light chain CDRs are KSSQSVLYESRNKNSVA, WASTRES, QQYHRLPLS; each variant's own CDRs replace them letter for letter.
The read-out is the apparent dissociation constant on a log10 scale (nM): the lower, the stronger.
Replicates are averaged; those with no signal do not enter the mean.
A pair that was not seen in that replicate is written "n.d."; this usually means weak binding, but a binder can also be missed.

CDR-L1,CDR-L2,CDR-L3,log10 Kd (nM) by replicate,mean log10 Kd (nM),signal with controls
KFEVSMLYESRNGNSVA,QASTRSS,QQYHRLPLS,0.14 -0.47 -0.06 -0.18 -1.00 -0.61,-0.36,0/18
KIHQSELYEDRNINSVA,SASQRSS,QQYHRLPLS,0.34 0.37 0.12 0.37 0.34 0.25,0.30,2/18 (2.55)
KVMQEMEYESRMANSVA,NASQRES,QQYHRLPLS,0.65 0.63 0.55 0.24 0.41 0.94,0.57,0/18
KLQQSMLYESRNKNSVA,NASLRES,QCYHRLPLS,1.46 1.49 1.39 1.39 1.23 1.42,1.40,3/18 (3.69)
KVPQSHDYESRNMNSVA,NASERES,QQYHRLPLS,0.60 0.38 0.33 0.62 0.50 0.57,0.50,0/18
KLSPSEQYLDRNCNAVA,QASQRES,QQYHRLPLS,0.29 0.18 0.01 -0.01 0.02 0.12,0.10,2/18 (3.46)
KVSPSHLYESRNKNSVA,NASTRET,QQYHRLPLS,-0.14 -0.42 -0.13 -0.49 -0.18 -0.04,-0.23,1/18 (1.76)
KIQQSMLYESRNKNSVA,NASTREE,QQYHRLPLM,-0.32 -0.38 -0.38 -0.52 -0.36 -0.04,-0.33,1/18 (2.71)
KLSGSMLYEQRMKNSVA,QASQRLS,QQYHRLPLS,0.25 0.22 0.47 -0.01 0.33 0.25,0.25,0/18
KLSQSVVYESRNKNSVA,NASTRES,QQYHRLPLS,0.02 -0.07 -0.02 -0.39 0.04 0.10,-0.05,1/18 (2.69)
KLEQLYYYGSRNKNSVA,QASTRES,QQYHRLPLS,0.32 0.16 0.16 -0.02 0.26 0.18,0.18,2/18 (3.59)
KLSCSELMESRNSNSVA,HASKRES,QDYHRLPLS,0.48 0.20 0.11 -0.03 0.16 0.36,0.21,2/18 (2.21)
KYQQLEPYESRNKNSVA,NASTREE,QQYHRLPLS,-0.08 -0.21 -0.42 -0.19 -0.55 0.05,-0.23,0/18
KLVWSDLYESRNKNNVA,GASQRES,QQYHRLPLS,0.13 -0.07 -0.27 -0.24 -0.24 0.00,-0.12,1/18 (2.57)
KVSQSDNGESRNHNSVA,HASTRSS,QQYHRLPLS,0.46 0.59 0.79 0.42 0.33 0.53,0.52,2/18 (3.22)
KWSCSQLYDDANKNSVA,NASTRLM,QQYHRLPLS,2.99 n.d. n.d. 0.65 0.11 0.24,1.00,0/18
KSDQSELEEQRNKNSVA,SASTRMS,QQYHRLPLS,0.38 0.22 0.40 0.31 0.24 0.42,0.33,1/18 (3.40)
KLSQSVWMESRNKWSVA,NASYRES,QQYHRLPLS,0.06 0.15 -0.13 0.00 -0.10 -0.15,-0.03,1/18 (2.73)
KVSMLGLYGQRNKGSVA,EASTRED,QQYHRLPLS,0.84 0.55 0.60 0.37 0.57 0.51,0.57,0/18
LLSQSELLESRNWNAVA,HASTRMD,QQYHRLPLS,0.15 0.37 0.44 0.13 0.15 0.61,0.31,0/18
KLMQEQEYQSRNPNSVA,HASERES,QQYHRLPLS,-0.05 -0.30 -0.36 -0.54 -0.57 -0.33,-0.36,1/18 (2.34)
KLSQSWLYEDRPKNSVA,NASTRMS,QQYHRLPLS,0.22 0.14 0.00 -0.03 0.00 0.21,0.09,3/18 (3.07)
KMAQGWMYESRNKNSVA,NASVREM,QQYHRLPLS,0.02 -0.12 -0.28 -0.36 -0.24 -0.17,-0.19,1/18 (3.77)
KWQYSWLYSSRNKNSVA,EGSTRES,QQYHRLPLS,1.41 0.35 0.78 0.68 0.37 1.18,0.79,0/18
KLQMRMLYESRNKNSVA,NASLRES,QQYHRLPLS,0.55 0.70 0.42 0.70 0.68 0.62,0.61,1/18 (3.35)
KISQAYLYESRNKNSVA,QASHREQ,QQYHRLPLS,0.10 -0.15 0.00 0.01 -0.03 0.19,0.02,0/18
KFSQGFLYEERQKNSVA,NASQRES,QQYHRLPLS,0.28 -0.06 0.04 -0.15 0.16 0.07,0.06,1/18 (2.80)
KMHISELYEDRNQNSVA,SASQRLE,QQYHRLPLS,0.04 -0.27 0.08 -0.37 0.35 -0.17,-0.06,1/18 (1.09)
KLMCSQEYESRNTNSVA,GASTRES,QQYHRLPLS,-0.33 0.28 -0.15 -0.25 0.37 -0.28,-0.06,0/18
KLSQSWEYLSRNSNAVA,NASQREQ,QQYHRLPLS,0.07 -0.11 -0.02 -0.04 -0.17 0.08,-0.03,2/18 (2.44)
KQQQSAWMEERNFNSVA,HASTRES,QQYHRLPLS,0.22 0.14 0.13 0.00 0.22 0.33,0.17,1/18 (2.65)
KLQMQKLYWSRNKNSVA,EASTRES,QQYHRLPLS,0.15 0.19 0.15 0.00 0.08 0.35,0.15,2/18 (2.76)
KLDFLGLYEQRNKNSVA,SASYRES,QQYHRLPLS,0.01 -0.28 -0.27 -0.39 -0.39 -0.22,-0.26,1/18 (3.44)
KLSQSWEGEERNKNSVA,SASTREQ,QQYHRLPLS,-0.13 -0.28 -0.29 -0.57 -0.28 -0.23,-0.30,0/18
KQSQSTLYESGMKNSVA,NASKRMS,QQYHRLPLS,0.68 0.67 0.54 0.41 0.89 1.01,0.70,1/18 (1.64)
KLMQSHLYESRMANNVA,SASKREE,QQYHRLPLS,0.57 0.12 0.23 0.03 0.53 0.20,0.28,1/18 (2.22)
KQSQSVEGESSNKNSVA,NASTREQ,QQYHRLPLS,-0.03 -0.12 0.07 -0.05 -0.07 0.24,0.01,2/18 (3.02)
KLMQEVEYESRLANSVA,NASTRLE,QQYHRLPLS,0.32 0.23 0.11 0.01 0.23 0.42,0.22,2/18 (2.48)
KLEWSDLLESRNKQSVA,NASQRMS,QQYHRLPLS,0.05 -0.04 -0.20 -0.03 -0.14 0.13,-0.04,1/18 (2.03)

For reference, 6 entries of the list once more:

CDR-L1	CDR-L2	CDR-L3	log10 Kd (nM) by replicate	mean log10 Kd (nM)	signal with controls
KWSCSQLYDDANKNSVA	NASTRLM	QQYHRLPLS	2.99 n.d. n.d. 0.65 0.11 0.24	1.00	0/18
KLMQSHLYESRMANNVA	SASKREE	QQYHRLPLS	0.57 0.12 0.23 0.03 0.53 0.20	0.28	1/18 (2.22)
KQSQSTLYESGMKNSVA	NASKRMS	QQYHRLPLS	0.68 0.67 0.54 0.41 0.89 1.01	0.70	1/18 (1.64)
KLVWSDLYESRNKNNVA	GASQRES	QQYHRLPLS	0.13 -0.07 -0.27 -0.24 -0.24 0.00	-0.12	1/18 (2.57)
KIQQSMLYESRNKNSVA	NASTREE	QQYHRLPLM	-0.32 -0.38 -0.38 -0.52 -0.36 -0.04	-0.33	1/18 (2.71)
KLSCSELMESRNSNSVA	HASKRES	QDYHRLPLS	0.48 0.20 0.11 -0.03 0.16 0.36	0.21	2/18 (2.21)

Values of this round are not directly comparable with the first-round values of the same sequences.
The parent sequence was in this pool as ten entries: three were never detected, three once, and four in most replicates, with averages from 0.34 to 2.37.
Background: pairings of all light chain designs with three empty control strains gave a value in 4% of cases (median 2.64, 5th percentile 1.59). Values in that range, when seen in few replicates, are hard to tell from nonspecific mating. The control count says in how many pairings with the empty strains this scFv gave a signal, with their mean in brackets.
In the paper, a design with two or fewer of six values counts as a poor binder.